Earlier results on 1 substance are cited in patent publication US20090156465A1, “DERIVATIVES OF BETA-AMINO ACID AS DIPEPTIDYL PEPTIDASE-IV INHIBITORS” (priority 2005, published 2009).

For this data set the following is noted: rapidly cleaved by DPP IV.

With “glucose-dependent insulinotropic polypeptide [GIP]”, the t1/2 is given as about 7 min.
